Measured values published in PMC6692079 (Journal of medicinal chemistry, 2018).
Counter-ions that a name gives are not always drawn.

The chains behind the UniProt entries cited, without tags or fusion partners. Where a name states a change or a piece, a line headed by the entry shows the natural chain unless it says otherwise.
UniProt P41145: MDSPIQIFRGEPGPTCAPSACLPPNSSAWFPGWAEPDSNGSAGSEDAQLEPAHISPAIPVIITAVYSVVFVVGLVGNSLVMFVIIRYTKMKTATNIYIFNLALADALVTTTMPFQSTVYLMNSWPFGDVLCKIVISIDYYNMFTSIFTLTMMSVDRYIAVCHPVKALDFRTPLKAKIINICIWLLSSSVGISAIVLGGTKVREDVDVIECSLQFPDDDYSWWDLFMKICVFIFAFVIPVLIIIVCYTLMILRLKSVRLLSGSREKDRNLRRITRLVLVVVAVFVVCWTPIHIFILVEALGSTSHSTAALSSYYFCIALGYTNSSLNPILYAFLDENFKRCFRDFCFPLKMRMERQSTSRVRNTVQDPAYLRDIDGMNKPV
UniProt P35372, whole entry: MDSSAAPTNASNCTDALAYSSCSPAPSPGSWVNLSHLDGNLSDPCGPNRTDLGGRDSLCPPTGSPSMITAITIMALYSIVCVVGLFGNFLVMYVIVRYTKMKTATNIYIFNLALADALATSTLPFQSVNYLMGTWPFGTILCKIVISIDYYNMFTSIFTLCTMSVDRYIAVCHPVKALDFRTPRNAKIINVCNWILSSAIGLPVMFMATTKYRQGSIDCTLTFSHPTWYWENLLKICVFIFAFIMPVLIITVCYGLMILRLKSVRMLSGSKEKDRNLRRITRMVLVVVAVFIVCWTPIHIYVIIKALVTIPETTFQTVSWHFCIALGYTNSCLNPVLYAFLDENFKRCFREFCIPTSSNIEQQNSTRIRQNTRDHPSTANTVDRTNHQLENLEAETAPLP

Legend:
Experiment in all cases: biochemical
human δ opioid receptor = human δ opioid receptor (Homo sapiens, UniProt P41143)
human κ opioid receptor = human κ opioid receptor (Homo sapiens, UniProt P41145); assay type: biochemical; details: for δ/κ / μ/κ: ratio of Ke values; for δ/κ: selectivity for κ relative to δ; for μ/κ: selectivity for κ relative to μ
human μ opioid receptor = human μ opioid receptor (Homo sapiens, UniProt P35372); assay type: biochemical

Row | Structure (SMILES) | Kb (human δ opioid receptor) [µM] | δ/κ (human κ opioid receptor) | Kb (human μ opioid receptor) [µM] | other results
1 | CC1CCCN(C[C@@H](NC(=O)[C@H]2Cc3ccc(O)cc3CN2)C(C)C)C1 (mixture of isomers) [Compound 13, (3R)-7-Hydroxy-N-{(1S)-2-methyl-1-[((3RS)-3-methylpiperidin-1-yl)methyl]propyl}−1,2,3,4-tetrahydroisoquinoline-3-carboxamide Dihydrochloride] | > 3 | >192 | – | –
2 | CC(C)[C@@H](CN1CC[C@H](C)[C@@H](C)C1)NC(=O)[C@H]1Cc2ccc(O)cc2CN1 (mixture of isomers) [Compound 16, (3R)-N-[(1S)-1-{[(3RS,4SR)-3,4-Dimethylpiperidin-1-yl]methyl}−2-methylpropyl]-7-hydroxy-1,2,3,4-tetrahydroisoquinoline-3-carboxamide Dihydrochloride] | – | – | 0.0509 ± 0.0077 | –
3 | CC(C)[C@@H](CN1CCCCCC1)NC(=O)[C@H]1Cc2ccc(O)cc2CN1 [Compound 3, (3R)-N-[(1S)-1-(Azepan-1-ylmethyl)-2-methylpropyl]-7-hydroxy-1,2,3,4-tetrahydroisoquinoline-3-carboxamide Dihydrochloride] | > 3 | > 177 | – | fold less potent at the κ opioid receptor than 1 (human κ opioid receptor): 2.5
4 | CC(C)[C@@H](CN1CCCC1)NC(=O)[C@H]1Cc2ccc(O)cc2CN1 [Compound 4, (3R)-7-Hydroxy-N-[(1S)-2-methyl-1-(pyrrolidin-1-ylmethyl)-propyl]-1,2,3,4-tetrahydroisoquinoline-3-carboxamide Dihydrochloride] | > 3 | >62 | – | –
5 | CC(C)[C@@H](CN1C2CCC1CC2)NC(=O)[C@H]1Cc2ccc(O)cc2CN1 [Compound 5, (3R)-N-[(1S)-1-(7-Azabicyclo[2.2.1]hept-7-ylmethyl)-2-methylpropyl]-7-hydroxy-1,2,3,4-tetrahydroisoquinoline-3-carboxamide Dihydrochloride] | > 3 | > 1186 | – | Kb (human κ opioid receptor): 0.00253 ± 0.0006 µM; fold more potent at the κ opioid receptor than 1 (human κ opioid receptor): 2.7
6 | CC(C)[C@@H](CN1CCOCC1)NC(=O)[C@H]1Cc2ccc(O)cc2CN1 [Compound 6, (3R)-7-Hydroxy-N-[(1S)-2-methyl-1-(morpholin-4-ylmethyl)-propyl]-1,2,3,4-tetrahydroisoquinoline-3-carboxamide Dihydrochloride] | – | – | > 3 | –
7 | CCCN(CCC)C[C@@H](NC(=O)[C@H]1Cc2ccc(O)cc2CN1)C(C)C [Compound 9, (3R)-N-{(1S)-1-[(Dipropylamino)methyl]-2-methylpropyl}−7-hydroxy-1,2,3,4-tetrahydroisoquinoline-3-carboxamide Dihydrochloride] | > 3 | > 207 | – | –
8 | CC(C)CN(CC(C)C)C[C@@H](NC(=O)[C@H]1Cc2ccc(O)cc2CN1)C(C)C [Compound 10, (3R)-N-{(1S)-1-{[Bis(2-methylpropyl)amino]methyl}−2-methyl-propyl]-7-hydroxy-1,2,3,4-tetrahydroisoquinoline-3-carboxamide Dihydrochloride] | – | – | > 3 | –
9 | CC(C)[C@@H](CN1CCCCC1=O)NC(=O)[C@H]1Cc2ccc(O)cc2CN1 [Compound 11, (3R)-7-Hydroxy-N-{(1S)-2-methyl-1-[(2-oxopiperidin-1-yl)-methyl]propyl}−1,2,3,4-tetrahydroisoquinoline-3-carboxamide Hydrochloride] | – | >49 | – | –
10 | CC1CC(C)CN(C[C@@H](NC(=O)[C@H]2Cc3ccc(O)cc3CN2)C(C)C)C1 (stereo partly drawn) [Compound 17, (3R)-N-{(1S)-1-[(3,5-Dimethylpiperidin-1-yl)methyl]-2-methylpropyl}−7-hydroxy-1,2,3,4 tetrahydroisoquinoline-3-carboxamide Dihydrochloride] | > 3 | >867 | – | –
11 | CC(C)[C@@H](CN1CCC(C(F)F)CC1)NC(=O)[C@H]1Cc2ccc(O)cc2CN1 [Compound 21, (3R)-N-[(1S)-1-{[4-(Difluoromethyl)piperidin-1-yl]methyl}−2-methylpropyl]-7-hydroxy-1,2,3,4-tetrahydroisoquinoline-3-carbox-amide Dihydrochloride] | > 3 | >870 | – | –
12 | CC(C)[C@@H](CN1CC=CCC1)NC(=O)[C@H]1Cc2ccc(O)cc2CN1 [Compound 27, (3R)-N-[(1S)-1-(3,6-Dihydropyridin-1(2H)-ylmethyl)-2-methylpropyl]-7-hydroxy-1,2,3,4-tetrahydroisoquinoline-3-carboxamide Dihydrochloride] | > 3 | >2804 | – | fold more potent at the κ opioid receptor than 1 (human κ opioid receptor): 6.4
13 | CC1=CCN(C[C@@H](NC(=O)[C@H]2Cc3ccc(O)cc3CN2)C(C)C)CC1 [Compound 28, (3R)-7-Hydroxy-N-{(1S)-2-methyl-1-[(4-methyl-3,6-dihydropyridin-1(2H)-yl)methyl]propyl}−1,2,3,4-tetrahydroisoquinoline-3-carboxamide Dihydrochloride] | > 3 | >3410 | – | fold increase in μ antagonist potency relative to 12 (human μ opioid receptor): 20; fold loss in κ opioid receptor antagonist potency relative to 12 (human κ opioid receptor): 2.4
14 | CC1=CCCN(C[C@@H](NC(=O)[C@H]2Cc3ccc(O)cc3CN2)C(C)C)C1 [Compound 29, (3R)-7-Hydroxy-N-{(1S)-2-methyl-1-[(5-methyl-3,6-dihydropyridin-1(2H)-yl)methyl]propyl}−1,2,3,4-tetrahydroisoquinoline-3-carboxamide Dihydrochloride] | > 3 | >318 | – | –
15 | O=C(NCCN1CCCCC1)[C@H]1Cc2ccc(O)cc2CN1 [Compound 34, (3R)-7-Hydroxy-N-(2-piperidin-1-ylethyl)-1,2,3,4-tetrahydroisoquinoline-3-carboxamide Dihydrochloride] | > 3 | >27 | > 3 | fold less potent at the κ opioid receptor than 1 (human κ opioid receptor): 16.6; μ/κ (human κ opioid receptor): >27
16 | CC1CCN(C[C@@H](NC(=O)[C@H]2Cc3ccc(O)cc3CN2)C2CC2)CC1 [Compound 35, (3R)-N-[(1S)-1-Cyclopropyl-2-(4-methylpiperidine-1-yl)ethyl]-7-hydroxy-1,2,3,4-tetrahydroisoquinoline-3-carboxamide Dihydrochloride] | > 3 | >538 | – | fold loss in κ opioid receptor antagonist potency relative to 12 (human κ opioid receptor): 15
17 | CC1CCN(C[C@@H](NC(=O)c2ccc3cc(O)ccc3c2)C(C)C)CC1 [Compound 37, 6-Hydroxy-N-{(1S)-2-methyl-1-[(4-methylpipieridine-1-yl)-methyl]propyl}naphthalene-2-carboxamide Hydrochloride] | > 3 | >146 | – | –
18 | CC1CCN(C[C@@H](NC(=O)[C@@H]2CCc3cc(O)ccc3C2)C(C)C)CC1 [Compound 38, 6-Hydroxy-N-{(1S)-2-methyl-1-[(4-methylpipieridine-1-yl)-methyl]propyl}−1,2,3,4-tetrahydronaphthalene-2-carboxamide Hydrochloride] | > 3 | >270 | 0.153 ± 0.037 | Kb (human κ opioid receptor): 0.0111 ± 0.0029 µM
19 | CC1CCN(C[C@@H](NC[C@H]2Cc3ccc(O)cc3CN2)C(C)C)CC1 [Compound 39, (3R)-3-[({(1S)-2-Methyl-1-[(4-methylpiperidin-1-yl)methyl]-propyl}amino)methyl]-1,2,3,4-tetrahydroisoquinolin-7-ol Trihydro-chloride] | > 3 | >174 | – | –
20 | CC1CCN(C[C@@H](NC(=O)[C@H]2Cc3ccc(C(N)=O)cc3CN2)C(C)C)CC1 [Compound 41, (3R)-N3-{(1S)-2-Methyl-1-[(4-methylpiperidin-1-yl)methyl]-propyl}−1,2,3,4-tetrahydroisoquinoline-3,7-dicarboxamide Dihydrochloride] | > 3 | >2190 | – | fold loss in κ opioid receptor antagonist potency relative to 12 (human κ opioid receptor): 3.7
21 | COc1ccc2c(c1)CN[C@@H](C(=O)N[C@H](CN1CCC(C)CC1)C(C)C)C2 [Compound 43, (3R)-7-Methoxy-N-{(1S)-2-methyl-1-[(4-methylpiperidin-1-yl)-methyl]propyl}−1,2,3,4-tetrahydroisoquinoline-3-carboxamide Dihydrochloride] | > 3 | >117 | – | fold loss in κ opioid receptor antagonist potency relative to 12 (human κ opioid receptor): 69
22 | CC1CCN(C[C@@H](NC(=O)[C@H]2Cc3ccc(F)cc3CN2)C(C)C)CC1 [Compound 45, (3R)-7-Fluoro-N-{(1S)-2-methyl-1-[(4-methylpiperidin-1-yl)-methyl]propyl}−1,2,3,4-tetrahydroisoquinoline-3-carboxamide Dihydrochloride] | > 3 | >17 | > 3 | fold loss in κ opioid receptor antagonist potency relative to 12 (human κ opioid receptor): 492; μ/κ (human κ opioid receptor): >17
23 | Cc1ccc2c(c1)CN(C)[C@@H](C(=O)N[C@H](CN1CCC(C)CC1)C(C)C)C2 [Compound 47, (3R)-7-Hydroxy-2-methyl-N-{(1S)-2-methyl-1-[(4-methylpiperidin-1yl)methy]propyl}−1,2,3,4-tetrahydroisoquinoline-3-carboxamide Dihydrochloride] | > 3 | >82 | 0.752 ± 0.14 | Kb (human κ opioid receptor): 0.0367 ± 0.0056 µM
